Patent US6541270B2, “Method, detector, and apparatus for colorimetric detection of chemical and biological agents” (dated 2003)

Protein sequences, listed by entry. Tags and fused reporters are not part of them. Lines headed by an entry give the natural chain unless they say otherwise; changes in a name come on top.
UniProt P02866: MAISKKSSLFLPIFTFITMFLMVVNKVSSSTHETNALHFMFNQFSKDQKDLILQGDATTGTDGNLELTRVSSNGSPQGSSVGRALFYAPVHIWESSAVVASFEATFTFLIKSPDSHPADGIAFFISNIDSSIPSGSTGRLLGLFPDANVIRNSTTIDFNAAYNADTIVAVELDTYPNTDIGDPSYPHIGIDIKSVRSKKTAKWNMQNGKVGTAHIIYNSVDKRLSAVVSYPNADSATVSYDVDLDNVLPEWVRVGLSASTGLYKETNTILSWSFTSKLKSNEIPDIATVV
UniProt P02872: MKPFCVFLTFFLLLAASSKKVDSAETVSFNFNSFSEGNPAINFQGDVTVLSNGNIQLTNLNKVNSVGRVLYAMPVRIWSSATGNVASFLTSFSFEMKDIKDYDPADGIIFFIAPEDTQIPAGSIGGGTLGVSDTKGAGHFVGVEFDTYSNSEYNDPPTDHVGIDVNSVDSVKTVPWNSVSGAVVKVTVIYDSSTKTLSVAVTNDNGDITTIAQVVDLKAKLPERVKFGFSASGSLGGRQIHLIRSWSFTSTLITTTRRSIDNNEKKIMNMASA

Experiments:
[1] = target: Con A (glucose specific lectin) (Canavalia ensiformis, UniProt P02866); assay: sugar-lectin binding (agglutination) assay with Con A; conditions: glycosurfactant 5 mol percent in polymerized DC8,9PC vesicles; tris buffer; absorption at 400 nm against time until plateau
[2] = target: PNA (peanut agglutinin, galactose specific lectin) (Arachis hypogaea, UniProt P02872); assay: sugar-lectin binding (agglutination) assay with PNA; conditions: glycosurfactant 5 mol percent in polymerized DC8,9PC vesicles; phosphate buffer; absorption at 400 nm against time until plateau

| Substance | binding affinity (agglutination) to Con A [1] | binding affinity (agglutination) to PNA [2] |
| --- | --- | --- |
| N-octadecyl lactobionamide | negative affinity | a binding affinity |
| N-octadecyl maltobionamide | a binding affinity | negative affinity |
